The structures appear in SMILES notation. Only a part is listed here, and it is no random draw. Active and inactive are the calls of the source. Cut-off read from the data, not from the text of the source: active = TR-FRET ratio above about 2000; inactive = the rest.

This assay in a line: signal artefacts in PPARgamma/SRC-3 readout – biochemical, TR-FRET ratio, artefact control for PPARgamma SRC-3 recruitment agonists (AID 1048). The settings on record: TR-FRET artefact counter-screen, PPARgamma/SRC-3 format; at 8 µM; hits give high values.
As to `COc1ccc(NP(C)(=O)Oc2ccccc2OC)cc1` (stereo not given), the TR-FRET ratio is inactive: 1760.
For `O=[N+]([O-])c1cc([N+](=O)[O-])c(NCC2CCS(=O)(=O)C2)c([N+](=O)[O-])c1` (stereo not given) the value was inactive: 1610.
Regarding `Cc1ccccc1NP(C)(=O)Nc1ccccc1C`, the TR-FRET ratio was inactive: 1580.
To `CC(C)c1ccc(OP(C)(=O)Nc2ccc(SC(F)(F)F)cc2)cc1` (stereo not given) belongs inactive: 1520.
To `O=C(OCCN1CCN(CCOCc2ccccc2)CC1)C(O)(c1ccccc1)c1ccccc1` belongs inactive: 1520.
`CCOC(=O)c1ccc(NP(C)(=O)Oc2ccc(F)cc2)cc1` (stereo not given): the TR-FRET ratio was inactive: 1640.
Consider `COc1ccc(OP(C)(=O)Nc2ccc(SC(F)(F)F)cc2)cc1` (stereo not given), for which the TR-FRET ratio is inactive: 1380.
Consider `COc1ccc(OP(C)(=O)Nc2ccccc2Br)cc1` (stereo not given), for which the TR-FRET ratio is inactive: 1760.
For the compound `Cc1cc(C)cc(OP(C)(=O)Nc2cccc(C(F)(F)F)c2)c1` (stereo not given), the TR-FRET ratio is inactive: 1800.
To `CP(=O)(OCCOc1ccccc1)OCCOc1ccccc1` belongs inactive: 1670.
Take `CP(=O)(Nc1ccc(Cl)cc1Cl)Oc1ccccc1` (stereo not given): the TR-FRET ratio is inactive: 1540.
For the compound `O=[N+]([O-])c1cc([N+](=O)[O-])c(Nc2ccccn2)c([N+](=O)[O-])c1`, the TR-FRET ratio was inactive: 1560.
For `CCc1ccc(OP(C)(=O)Nc2cccnc2)cc1` (stereo not given) the value was inactive: 1470.
As to `COc1ccc(OP(C)(=O)Nc2ccc(Br)cc2)cc1` (stereo not given), the TR-FRET ratio is inactive: 1520.
For `CN(C)C(=O)c1c([N+](=O)[O-])cc([N+](=O)[O-])cc1[N+](=O)[O-]`, the TR-FRET ratio is inactive: 1720.
As for `COc1ccccc1OP(C)(=O)Nc1ccccc1Br` (stereo not given), the TR-FRET ratio was inactive: 1360.
For `CCOC(=O)c1ccc(NP(C)(=O)Oc2ccc(Cl)cc2)cc1` (stereo not given) the value was inactive: 1460.
For `CP(=O)(Nc1ccccc1Br)Oc1ccccc1` (stereo not given) the value was inactive: 1790; for `COc1ccccc1OP(C)(=O)Nc1ccccc1` (stereo not given), inactive: 1570; for `Cc1cc(C)cc(OP(C)(=O)Nc2ccc(SC(F)(F)F)cc2)c1` (stereo not given), inactive: 1600.
For `Cc1cccc(C)c1OP(C)(=O)Nc1ccc(SC(F)(F)F)cc1` (stereo not given) the value was inactive: 1360.
Take `CP(=O)(Oc1ccccc1)OC(c1ccccc1)C(F)(F)F` (stereo not given): the TR-FRET ratio was inactive: 1600.
For `CCOC(=O)c1ccc(NP(C)(=O)Oc2ccc(OC)cc2)cc1` (stereo not given) the value was inactive: 1510; for `CCOP(C)(=S)SCC(=O)NC(C)C(=O)O` (stereo not given), inactive: 1750; for `CCN(CC)CCCOC(=O)C(O)(c1ccccc1)c1ccccc1`, inactive: 1440.
Consider `O=[N+]([O-])c1ccc2c(c1)C=Nc1ccccc1O2`, for which the TR-FRET ratio is inactive: 1690.
Consider `CC(C)(C)c1ccc(OP(C)(=O)Nc2ccc(SC(F)(F)F)cc2)cc1` (stereo not given), for which the TR-FRET ratio is inactive: 1660.
For `Cc1cccc(C)c1OP(C)(N)=O` (stereo not given) the value was inactive: 1660; for `Cc1cc(C)cc(OP(C)(N)=O)c1` (stereo not given), inactive: 1700.
As to `COc1ccccc1OP(C)(=O)Nc1cc(Cl)ccc1C` (stereo not given), the TR-FRET ratio was inactive: 1720.
To `COc1ccccc1OP(C)(=O)Nc1ccc(C)cc1` (stereo not given) belongs inactive: 1680; to `Cc1ccc(NP(C)(=O)Oc2ccccc2)c(C)c1` (stereo not given), inactive: 1540.
`CCOC(=O)c1ccc(NP(C)(=O)Oc2ccccc2)cc1` (stereo not given): the TR-FRET ratio was inactive: 1300.
Take `CC1=NCCc2c1[nH]c1ccccc21.O=[N+]([O-])c1cc([N+](=O)[O-])c(O)c([N+](=O)[O-])c1`: the TR-FRET ratio was inactive: 1680.
With `CCOC(=O)c1ccc(NP(C)(=O)Oc2cc(C)cc(C)c2)cc1` (stereo not given), the TR-FRET ratio was inactive: 1500.
With `CP(=O)(Nc1cccc(Br)c1)Oc1ccccc1` (stereo not given), the TR-FRET ratio is inactive: 1380.
Consider `O=[N+]([O-])c1cc([N+](=O)[O-])c(-n2nnc3ccccc32)c([N+](=O)[O-])c1`, for which the TR-FRET ratio was inactive: 1670.
For `CP(=O)(Nc1ccc(SC(F)(F)F)cc1)Oc1ccccc1` (stereo not given) the value was inactive: 1450.
As for `CCCOc1ccc(NP(C)(=O)Oc2ccc(Cl)cc2)cc1` (stereo not given), the TR-FRET ratio was inactive: 1460.
Turning to `CN1CCCCC1COC(=O)C1(O)c2ccccc2CCc2ccccc21` (stereo not given), the TR-FRET ratio was inactive: 1660.

For the origin of these results see PubChem BioAssay AID1048 (The Scripps Research Institute Molecular Screening Center, 2008).
